Here are results for 1 compound from PMC12362594, “Design, Synthesis and Preclinical Evaluation of a Brain-Permeable PET Tracer for P2Y12 Receptor Imaging in the Brain” (Journal of Medicinal Chemistry, 2025).

By UniProt entry, the sequences of proteins in these tests, tags left out. Where a name states a change or a piece, a line headed by the entry shows the natural chain unless it says otherwise.
UniProt Q9H244: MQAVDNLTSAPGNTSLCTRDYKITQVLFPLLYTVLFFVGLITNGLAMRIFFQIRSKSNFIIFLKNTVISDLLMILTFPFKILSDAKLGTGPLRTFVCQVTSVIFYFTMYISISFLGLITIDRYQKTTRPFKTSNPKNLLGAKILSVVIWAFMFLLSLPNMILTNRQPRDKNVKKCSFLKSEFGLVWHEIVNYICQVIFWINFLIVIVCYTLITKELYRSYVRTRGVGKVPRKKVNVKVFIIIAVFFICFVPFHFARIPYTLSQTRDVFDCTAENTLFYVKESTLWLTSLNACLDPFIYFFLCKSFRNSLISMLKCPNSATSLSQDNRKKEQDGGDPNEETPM

The structures appear in SMILES notation.

Broadly, the IC50 is the midpoint of a concentration-inhibition curve.

This assay has as its target P2Y12R (Homo sapiens, UniProt Q9H244). Put plainly: cell-based. The conditions noted are these: IC50, [33P]2-MeSADP competitor; triplicates, mean; footnote b values: three independent experiments, mean ± SD. The method, then:
The cell cultures were maintained in an incubator at 37 °C under a humidified and 5% CO2-conditioned atmosphere. Cells were passaged at 80% confluency. For binding assays, cells were harvested with Trypsin-EDTA (5 mL, Gibco) and resuspended in medium. The suspension was centrifuged at 1000g for 5 min and the supernatant was discarded. The cells were adjusted to assay cell concentration (2 × 10^6 cells/mL) by the addition of D-PBS and stored at 37 °C up to 1 h prior to the binding assay.
The mixture was transferred to a 96-well filter plate (1.0 μm glass fiber filter, MultiScreenHTS FB Filter Plate, Merck Millipore, Billercia, MA) and filtered with a vacuum manifold (MultiScreenHTS Vacuum Manifold, Merck Millipore, Billercia, MA). The filters were washed by the addition of cold PBS buffer (4 × 200 μL) and dried at rt for 1 h. Afterward, a punch-tip plate was mounted and the filters were separated into scintillation vials (10 mL) containing scintillation cocktail (4 mL, Rotiszint eco plus LSC-Universalcocktail). […] Bound activity was plotted as a function of ligand concentration in GraphPad Prism 8.0 (GraphPad Software, version 8.4.3., San Diego, CA).

In turn, `CCOC(=O)c1cc([11C]#N)c(N2CC(NC(=O)NS(=O)(=O)c3ccc(Cl)s3)C2)nc1C` [Compound 4, reference compound] showed a half-maximal inhibitory concentration (IC50) of 51 ± 23 nM.
